# Results: patent publication US11447533B2, “Antimicrobial and anticancer peptides and conjugates and compositions, methods, articles and kits relating thereto” (George Mason Research Foundation, Inc., priority 2018, dated 2022)
# Assay: Cytotoxicity (Alamar blue)
# Type: cell-based
# Conditions: human, primary lung epithelium cells; ~16 hours (overnight), reduced serum conditions; read-out: concentration decreasing resazurin reduction by 50% (LD50)
# Procedure: FIGS. 11A-11B are graphs showing cytotoxicity against primary lung epithelium cells in serum-free condition. Cells were seeded in complete growth medium (Minimal essential medium supplemented with 10% fetal bovine serum) at near-confluence into a 96-well plate and allowed to settle for 24-hours. Media was then replaced to OptiMEM I reduced serum medium containing peptide or vehicle alone (DBPS) and cells were incubated overnight (16 hours). A resazurin based dye (Alamar blue) was added directly to media and conversion of resazurin to resorufin was evaluated following two hours. % Survival represents the proportion of viable cells in peptide treated cells relative to cells treated with vehicle alone. […] Each peptide was tested in triplicate.
# FIG. 12 is a graph showing comparison of toxicities against Lung Primary Epithelial cells and Lung Cancerous Epithelial Cells, derived from H358 cell-line. […] Each peptide was tested in triplicate.
# Cytotoxicity. Cells were seeded in complete growth medium (Minimal Essential Medium, MEMα, supplemented with 10% Fetal Bovine Serum) into a culture-treated 96-well plate at a density of 25000 cells per well. After 24 hours, culture media was aspirated and replaced with media containing the selected peptide. […] A ratio of reduction in treated versus untreated cells was calculated in order to determine overall cell viability. […]
structure (smiles),measurement,value
CC[C@H](C)[C@H](NC(=O)CN)C(=O)NCC(=O)N[C@@H](C)C(=O)N[C@H](C(=O)N[C@@H](CC(C)C)C(=O)N[C@@H](CCCCN)C(=O)N[C@H](C(=O)N[C@@H](CC(C)C)C(=O)N[C@H](C(=O)N[C@H](C(=O)NCC(=O)N[C@@H](CC(C)C)C(=O)N1CCC[C@H]1C(=O)N[C@@H](C)C(=O)N[C@@H](CC(C)C)C(=O)N[C@H](C(=O)N[C@@H](CO)C(=O)N[C@@H](Cc1c[nH]c2ccccc12)C(=O)N[C@H](C(=O)N[C@@H](CCCCN)C(=O)N[C@@H](CCCNC(=N)N)C(=O)N[C@@H](CCCCN)C(=O)N[C@@H](CCCNC(=N)N)C(=O)N[C@@H](CCC(N)=O)C(=O)N[C@@H](CCC(N)=O)C(N)=O)[C@@H](C)CC)[C@@H](C)CC)[C@@H](C)O)[C@@H](C)O)C(C)C)C(C)C [melittin],CC50 at 16 h,< 10 µM
